# Results: ChEMBL document CHEMBL2429856, “Benzazepinones and benzoxazepinones as antagonists of inhibitor of apoptosis proteins (IAPs) selective for the second baculovirus IAP repeat (BIR2) domain” (J Med Chem, 2013)
# Sequences of proteins named here, by UniProt entry; tags and fusion partners are left off.
# UniProt P98170, whole entry: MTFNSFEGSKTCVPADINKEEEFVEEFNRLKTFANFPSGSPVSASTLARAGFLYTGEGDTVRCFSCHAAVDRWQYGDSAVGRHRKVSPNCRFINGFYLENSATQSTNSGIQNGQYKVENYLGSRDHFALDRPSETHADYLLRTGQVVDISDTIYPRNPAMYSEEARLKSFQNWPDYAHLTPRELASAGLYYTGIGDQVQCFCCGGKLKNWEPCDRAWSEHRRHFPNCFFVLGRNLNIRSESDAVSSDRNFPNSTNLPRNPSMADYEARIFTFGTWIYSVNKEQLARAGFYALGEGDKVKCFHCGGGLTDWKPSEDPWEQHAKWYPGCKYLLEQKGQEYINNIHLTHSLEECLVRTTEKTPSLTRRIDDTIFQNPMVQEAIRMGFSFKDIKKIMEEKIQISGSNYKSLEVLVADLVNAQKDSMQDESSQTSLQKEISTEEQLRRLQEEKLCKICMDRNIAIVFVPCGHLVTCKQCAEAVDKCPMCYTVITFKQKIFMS
# Biological target: E3 ubiquitin-protein ligase XIAP (Homo sapiens, UniProt P98170)
row,Compound,IC50 [µM]
1,CN[C@@H](C)C(=O)N[C@H]1COc2ccccc2N(Cc2c(OC)ccc3cc(Br)ccc23)C1=O,> 54
2,CN[C@@H](C)C(=O)N[C@@H]1C(=O)N(Cc2noc3ccccc23)c2ccccc2OC12CCOCC2,> 54.8
